Experimental data as given in patent US20230295226A1.

Tests used:
mu opioid receptor (MOR) = test: protein binding radioassay
[1] = molecular target: delta opioid receptor (DOR); test: protein binding radioassay

Substance: D-Ala-D-Leu enkephalin (DADLE) (peptide)
- Kd (mu opioid receptor (MOR)): 9 nM
- Kd [1]: 8 nM
